SMILES strings stand for the structures.

Sequences of proteins named here, by UniProt entry; tags and fusion partners are left off. Residues count along the entry.
UniProt O95819, 25-289 limits assumed: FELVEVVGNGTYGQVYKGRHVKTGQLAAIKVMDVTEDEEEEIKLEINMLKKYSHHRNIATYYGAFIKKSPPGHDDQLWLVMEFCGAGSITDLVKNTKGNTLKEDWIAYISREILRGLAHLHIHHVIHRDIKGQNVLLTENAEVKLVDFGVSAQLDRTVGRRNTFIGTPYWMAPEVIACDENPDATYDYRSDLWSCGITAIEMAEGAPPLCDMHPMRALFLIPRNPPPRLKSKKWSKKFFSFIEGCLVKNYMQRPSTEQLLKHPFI

The target in experiment [1] is T1, purified human MAP4K4 kinase domain (Homo sapiens, UniProt O95819). Briefly: MAP4K4 Inhibition Assay Protocol No. 1 (Caliper LabChip, moesin-derived peptide phosphorylation). Particulars: read-out: MAP4K4 IC50 (μM) Assay 1, 1 nM enzyme, 10 uM ATP, 45 min.
Experiment [2] addresses T1, purified human MAP4K4 kinase domain. The experiment can be described thus: MAP4K4 Inhibition Assay Protocol No. 2 (Z'-LYTE FRET). The conditions noted are these: read-out: MAP4K4 IC50 (μM) Assay 2, 1 nM enzyme, 10 uM ATP, 60 min.

For `Nc1ncc(C(=O)N[C@H]2C[C@@H](O)C2)c2ccc(-c3cccc(F)c3)nc12` (relative stereo), the values for the IC50 in experiment [1] and in experiment [2] were 0.00256 µM and 0.00305 µM, respectively.

Values taken from patent US9586956B2, “Isoquinoline and naphthyridine derivatives” (Genentech, Inc., priority 2012, dated 2017).
